Consider 1 compound from publication PMC4254541 (Bioorganic & medicinal chemistry letters, 2014).

Sequences of proteins named here, by UniProt entry; tags and fusion partners are left off. Residues count along the entry.
UniProt P05067, 672-713: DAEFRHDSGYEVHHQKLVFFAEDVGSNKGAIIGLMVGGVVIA
UniProt P05067, 672-711: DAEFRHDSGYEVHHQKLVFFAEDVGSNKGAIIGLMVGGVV

Assay [1] concerns the target synthetic Aβ(1–42) fibrils (Homo sapiens, UniProt P05067). The assay is described as follows: Displacement of 5 nM [3H]-1a. The class given is binding. Particulars: read-out: Aβ(1–42) EC50; displacement of 5 nM [3H]-1a from synthetic Aβ(1–42) fibrils.
The target in assay [2] is synthetic Aβ(1–40) fibrils (Homo sapiens, UniProt P05067). The experiment in a line: Displacement of 5 nM [3H]-1a. The note with it: read-out: Aβ(1–40) EC50; displacement of 5 nM [3H]-1a from synthetic Aβ(1–40) fibrils. The class given is binding.

Consider `Cc1ccc2c(c1)sc(-c1ccc(N(C)C)cc1)[n+]2C.[Cl-]` [ThT, Thioflavine T], for which the EC50 in assay [1] and in assay [2] was above 10 µM throughout.
